Experimental data: patent US20240000961A1, “ANTIBODY-BASED CONJUGATE FOR ENHANCING THERAPEUTIC EFFECT OF TARGETED THERAPEUTIC AGENT” (THE CATHOLIC UNIVERSITY OF KOREA INDUSTRY-ACADEMIC …, priority 2020, published 2024)

Columns and labels:
A431 cancer cells = assay: Suppression of in vivo cancer growth; conditions: A431 tumours in BALB/c nude mice, intravenous, 0.5 mg/kg five times
Excerpt: Thereafter, the effect of suppressing the growth of cancer cells was confirmed by measuring the size and weight of the cancer tissue once every 2 to 3 days.

[1] = system: SKOV3 cells, ovarian cell line expressing the EGFR; conditions: for cell apoptosis compared to cetuximab antibody (CTX) treatment groups: SKOV3, MTT
NIH3T3 normal cells = type: cell-based; conditions: MTT, treated 4 hours then cultured 1 day
L929 normal cells = type: cell-based; conditions: MTT, treated 4 hours then cultured 1 day
[2] = system: A2780 cells (low level of EGFR expression); assay: Targeting ability by flow cytometry, A2780; type: cell-based; conditions: A2780, 2 hours, flow cytometer
[3] = system: SKOV3 cells (high level of EGFR expression); assay: Cell targeting by confocal laser scanning microscopy, SKOV3; type: cell-based; conditions: SKOV3, 2 hours
Excerpt: (§1) The cell targeting of the cetuximab-maleimide-Pluronic F68-chlorin e6 according to cells with different levels of EGFR expression was visually confirmed by confocal laser scanning microscopy compared to cetuximab-maleimide-polyethylene glycol 2k-chlorin e6.
(§2) Thereafter, the treated cells were washed with a buffer solution and fixed with 4% paraformaldehyde.

ASPC-1 cancer cells = conditions: ASPC-1 tumour-bearing nude mice, intravenous, imaged for 120 hours
[4] = system: A2780 cells (low level of EGFR expression); assay: Cell targeting by confocal laser scanning microscopy, A2780; type: cell-based; conditions: A2780, 2 hours
Excerpt: as §1, §2

[5] = system: SKOV3 cells (high level of EGFR expression); assay: Targeting ability by flow cytometry, SKOV3; type: cell-based; conditions: SKOV3, 2 hours, flow cytometer

| Substance | tumor growth compared to PBS control (A431 cancer cells) | cytotoxicity (NIH3T3 normal cells) | cytotoxicity (L929 normal cells) | further results |
| --- | --- | --- | --- | --- |
| cetuximab-maleimide-Pluronic F68 [CTX-Mal-PF68] | cancer growth was inhibited |  |  | cell apoptosis compared to cetuximab antibody (CTX) treatment groups [1]: more cell apoptosis |
| cetuximab [CTX] | grew less rapidly |  |  |  |
| trastuzumab-maleimide-polyethylene glycol 6K [Tra-Mal-PEG6K, reference compound] |  | non-cytotoxic | non-cytotoxic |  |
| trastuzumab-maleimide-polyethylene glycol 2K [Tra-Mal-PEG2K, reference compound] |  | non-cytotoxic | non-cytotoxic |  |
| cetuximab-maleimide-polyethylene glycol 6K [CTX-Mal-PEG6K] | grew less rapidly |  |  |  |
| cetuximab-maleimide-Pluronic F127 [CTX-Mal-PF127] | cancer growth was inhibited |  |  | cell apoptosis compared to cetuximab antibody (CTX) treatment groups [1]: more cell apoptosis |
| trastuzumab-maleimide-Pluronic F127 [Tra-Mal-PF127] |  | non-cytotoxic | non-cytotoxic |  |
| maleimide-Pluronic F127 [Mal-PF127] |  |  |  | cytotoxicity [1]: non-cytotoxic |
| cetuximab-maleimide-Pluronic F68-chlorin e6 [CTX-Mal-PF68-Ce6] |  |  |  | fluorescence (targeting ability) compared to cetuximab-maleimide-polyethylene glycol 2k-chlorin e6 [2]: enhanced fluorescence; fluorescence intensity compared to CTX-Mal-PEG2K-Ce6 treatment group [3]: stronger; fluorescence of photosensitizer in cancer tissue compared to CTX-Mal-PEG2K-Ce6 injection group (ASPC-1 cancer cells): more strongly; fluorescence intensity compared to CTX-Mal-PEG2K-Ce6 treatment group [4]: stronger; fluorescence (targeting ability) compared to cetuximab-maleimide-polyethylene glycol 2k-chlorin e6 [5]: enhanced fluorescence |
| trastuzumab-maleimide-Pluronic F68 [Tra-Mal-PF68] |  | non-cytotoxic | non-cytotoxic |  |
| cetuximab-maleimide-polyethylene glycol 2K [CTX-Mal-PEG2K] | grew less rapidly |  |  |  |
